From patent publication US20220370543A1, “METHODS OF TREATMENT FOR MODIFYING HEMODYNAMICS” (EBI ANTI SEPSIS B.V., priority 2019, published 2022)

Assay: Solubility measurements / aggregation points of AQGV salts
Excerpt: At first attempts were made to mix a solution of the free base and an acid in order to achieve a concentrated DMSO solution of the salt and subsequently dilute this in water in order to determine solubility. […] It was decided to determine the solubility of the salts required by dilution of known amount of salts (not soluble) till a clear solution is obtained.

adenosine
Solubility compared to AQGV-Ac (0.9% NaCl): did not provide solubility
Solubility in DMSO (free base mixed with acid in DMSO): did not dissolve in DMSO at all
